Laboratory results reported in BindingDB's records for doi:10.1073/pnas.89.8.3630 (Synaptic Pharmaceutical, 1992).
Where “and” joins values, the source holds several entries; their conditions need not be identical. Identical values can stand only once.

The chains behind the UniProt entries cited, without tags or fusion partners.
UniProt P28222, whole entry: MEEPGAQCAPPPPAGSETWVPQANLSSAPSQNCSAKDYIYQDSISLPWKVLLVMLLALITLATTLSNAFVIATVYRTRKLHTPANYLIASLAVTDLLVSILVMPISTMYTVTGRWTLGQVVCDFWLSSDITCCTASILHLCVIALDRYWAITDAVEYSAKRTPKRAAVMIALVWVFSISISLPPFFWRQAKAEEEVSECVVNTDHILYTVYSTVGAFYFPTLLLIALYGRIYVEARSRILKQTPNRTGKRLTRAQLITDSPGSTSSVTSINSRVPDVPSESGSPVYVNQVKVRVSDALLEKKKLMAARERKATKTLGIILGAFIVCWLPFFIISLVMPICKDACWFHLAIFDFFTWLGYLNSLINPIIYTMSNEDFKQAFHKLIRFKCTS
UniProt Q8MI13, whole entry: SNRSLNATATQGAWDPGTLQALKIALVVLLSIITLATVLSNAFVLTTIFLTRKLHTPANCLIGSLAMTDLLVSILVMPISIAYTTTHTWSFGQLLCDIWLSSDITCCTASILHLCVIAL

Columns and labels:
[1] = biological target: 5-hydroxytryptamine receptor 1B (Homo sapiens, UniProt P28222)
[2] = biological target: 5-hydroxytryptamine 1D receptor (Bos taurus, UniProt Q8MI13)

Ki [1]: 16 nM and 22 nM
Ki [2]: 20 nM
Structure (SMILES): COC(=O)[C@@H]1[C@H]2C[C@H]3c4[nH]c5ccccc5c4CCN3C[C@@H]2CC[C@@H]1O [yohimbic acid methyl ester]
